ChEMBL document CHEMBL6120980, “Discovery of First Branched-Chain Ketoacid Dehydrogenase Kinase (BDK) Inhibitor Clinical Candidate PF-07328948” (J Med Chem, 2025)

Key:
Format in all cases: functional, organism-based
[1] = biological target: Branched-chain alpha-ketoacid dehydrogenase kinase (Rattus norvegicus) (UniProt Q00972); assay: In vivo inhibition of BDK in obese ZSF1 rat model assessed as reduction in left atrial size at 54 to 59 mg/kg/day administered via chow diet and measured after 7 weeks by ECG analysis; conditions: dose lower […], dose upper […]
[2] = biological target: Branched-chain alpha-ketoacid dehydrogenase kinase (Rattus norvegicus) (UniProt Q00972); assay: In vivo inhibition of BDK in obese ZSF1 rat model assessed as increase in left ventricular fractional shortening at 54 to 59 mg/kg/day administered via chow diet and measured after 7 weeks by ECG analysis; conditions: dose lower […], dose upper […]
[3] = biological target: Branched-chain alpha-ketoacid dehydrogenase kinase (Rattus norvegicus) (UniProt Q00972); assay: In vivo inhibition of BDK in obese ZSF1 rat model assessed as improvement in exercise capacity by measuring increase in time to fatigue at 54 to 59 mg/kg/day administered via chow diet and measured after 9 weeks; conditions: dose lower […], dose upper […]
[4] = biological target: Branched-chain alpha-ketoacid dehydrogenase kinase (Mus musculus) (UniProt O55028); assay: In vivo inhibition of BDK in diet-induced obese male C57BL/6J mouse model assessed as reduction in plasma valine level administered orally as once daily dose for 10 days by mass spectrometric analysis; conditions: route po, time 10.0 day
[5] = biological target: Branched-chain alpha-ketoacid dehydrogenase kinase (Rattus norvegicus) (UniProt Q00972); assay: In vivo inhibition of BDK in obese ZSF1 rat model assessed as reduction in plasma ketoleucine level at 17 to 19 mg/kg/day administered via chow diet and measured after 3 weeks by mass spectrometric analysis; conditions: dose lower […], dose upper […]
[6] = biological target: Branched-chain alpha-ketoacid dehydrogenase kinase (Rattus norvegicus) (UniProt Q00972); assay: In vivo inhibition of BDK in obese ZSF1 rat model assessed as improvement in exercise capacity by measuring increase in distance run at 54 to 59 mg/kg/day administered via chow diet and measured after 9 weeks; conditions: dose lower […], dose upper […]
[7] = biological target: Branched-chain alpha-ketoacid dehydrogenase kinase (Rattus norvegicus) (UniProt Q00972); assay: In vivo inhibition of BDK in obese ZSF1 rat model assessed as increase in ejection fraction at 54 to 59 mg/kg/day administered via chow diet and measured after 7 weeks by ECG analysis; conditions: dose lower […], dose upper […]
[8] = biological target: Branched-chain alpha-ketoacid dehydrogenase kinase (Rattus norvegicus) (UniProt Q00972); assay: In vivo inhibition of BDK in obese ZSF1 rat model assessed as reduction in plasma ketoleucine level at 54 to 59 mg/kg/day administered via chow diet and measured after 3 weeks by mass spectrometric analysis; conditions: dose lower […], dose upper […]

inhibition [3]: Active | inhibition [4]: Dose-dependent-effect | inhibition [6]: Active
Structure (SMILES): COc1c(F)c(F)cc(-c2c(C(=O)O)sc3cc(F)ccc23)c1F
inhibition [1]: Active | inhibition [2]: Active | inhibition [5]: Active; Small But Significant Decrease Observed | inhibition [7]: Active | inhibition [8]: Active; Large Decrease In Ketoleucine Level Observed

Activity calls are given as the source filed them. The rule behind the calls is not given here.
